Source: ChEMBL document CHEMBL1153544, “Synthesis of 1,1-[1-naphthyloxy-2-thiophenyl]-2-methylaminomethylcyclopropanes and their evaluation as inhibitors of serotonin, norepinephrine, and dopamine transporters” (J Med Chem, 2009)

Sequences of proteins named here, by UniProt entry; tags and fusion partners are left off.
UniProt Q01959, whole entry: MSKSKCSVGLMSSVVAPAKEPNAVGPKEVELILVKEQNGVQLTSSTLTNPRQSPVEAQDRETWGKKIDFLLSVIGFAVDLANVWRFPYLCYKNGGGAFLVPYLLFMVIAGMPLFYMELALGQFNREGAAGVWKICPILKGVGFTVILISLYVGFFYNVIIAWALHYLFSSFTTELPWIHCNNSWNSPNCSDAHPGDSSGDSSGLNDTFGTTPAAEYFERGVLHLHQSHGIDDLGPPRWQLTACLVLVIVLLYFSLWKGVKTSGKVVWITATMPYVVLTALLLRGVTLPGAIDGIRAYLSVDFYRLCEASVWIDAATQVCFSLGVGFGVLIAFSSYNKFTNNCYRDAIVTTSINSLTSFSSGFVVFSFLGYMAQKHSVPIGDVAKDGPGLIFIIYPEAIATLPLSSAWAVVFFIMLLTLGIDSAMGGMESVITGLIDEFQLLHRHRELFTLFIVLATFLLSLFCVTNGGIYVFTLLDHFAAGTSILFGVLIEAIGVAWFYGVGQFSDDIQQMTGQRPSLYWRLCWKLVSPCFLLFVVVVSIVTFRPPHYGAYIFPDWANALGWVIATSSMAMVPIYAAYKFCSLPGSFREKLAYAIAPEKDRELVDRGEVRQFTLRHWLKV

Target: Sodium-dependent dopamine transporter (Homo sapiens, UniProt Q01959)

| Compound | Ki [nM] |
| --- | --- |
| CNC[C@@H]1C[C@@]1(Oc1cccc2ccccc12)c1cccs1 | 223 |
| CNC[C@H]1C[C@]1(Oc1cccc2ccccc12)c1cccs1 | 1910 |
| CNC[C@@H]1C[C@@]1(Oc1cccc2ccccc12)c1cccs1 (racemic) | 283 |
| CNC[C@H]1C[C@@]1(Oc1cccc2ccccc12)c1cccs1 (racemic) | 586 |
